Target: T1, signalling lymphocyte activation molecule-associated protein (SAP), full length, recombinant human (human, UniProt O60880 1-128)
T1 construct: SAP (SH2D1A), human, full length recombinant protein; called 'soluble monomeric recombinant human SAP' in the results; also called SH2D1A; source: recombinant, produced in-house and purified on the day of the experiment
T1 sequence (looked up): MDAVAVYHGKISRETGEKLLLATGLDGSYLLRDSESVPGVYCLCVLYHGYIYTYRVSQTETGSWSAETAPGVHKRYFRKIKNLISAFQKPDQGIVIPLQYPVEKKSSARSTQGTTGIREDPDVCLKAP
Assay: SPR; BIAcore 3000; biotinylated phosphopeptides immobilised on a streptavidin-coated CM5 chip (~30 RU), purified recombinant protein passed over; 37°; 10 mM HEPES pH 7·4, 150 mM KCl, 10 mM EDTA, 0·005% Tween 20; equilibrium data, one-site binding curve
Conditions: both partners purified

Kd: 90 nM
B1: CD244-ITSM2 phosphopeptide (peptide)
peptide: GGSTIYSMIQS
modifications: phosphotyrosine (pY, sixth residue of the peptide); biotin at the N-terminus
notes: CD244 (2B4, SLAMF4), human, ITSM2; source: synthetic peptide; bought: Peptide Protein Research Ltd
